The record followed here is US20090099157A1, “TETRAHYDRO-PYRAZOLO-PYRIDINE THIOETHER MODULATORS OF CATHEPSIN S” (priority 2007, published 2009).

Protein sequences, listed by entry. Tags and fused reporters are not part of them. Residues count along the entry.
UniProt P25774, 115-331: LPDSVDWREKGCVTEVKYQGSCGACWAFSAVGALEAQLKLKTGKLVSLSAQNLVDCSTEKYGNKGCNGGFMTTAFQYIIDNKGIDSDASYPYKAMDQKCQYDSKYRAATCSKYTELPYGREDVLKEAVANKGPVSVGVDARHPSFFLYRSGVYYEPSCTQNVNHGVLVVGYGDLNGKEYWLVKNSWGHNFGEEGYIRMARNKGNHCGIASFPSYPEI

The test addresses Recombinant human cathepsin S (CatS) (Homo sapiens, UniProt P25774). Description: biochemical.

The structures appear in SMILES notation.

On to `CC(=O)N1CCN(CC(O)Cn2nc(-c3ccc(C(F)(F)F)c(SCCN4CCCC4)c3)c3c2CCN(S(C)(=O)=O)C3)CC1` (stereo not drawn) [Example 449, 1-(4-Acetylpiperazin-1-yl)-3-[5-(methylsulfonyl)-3-{3-[(2-pyrrolidin-1-ylethyl)sulfanyl]-4-(trifluoromethyl)phenyl}-4,5,6,7-tetrahydro-1H-pyrazolo[4,3-c]pyridin-1-yl]propan-2-ol], for which the IC50 was determined as 1110 nM.

Take `CS(=O)(=O)N1CCc2c(c(-c3ccc(C(F)(F)F)c(SCCN4CCC(F)CC4)c3)nn2C[C@@H](O)CN2CCC3(CC2)OCCCO3)C1` [Example 701, (2S)-1-(1,5-Dioxa-9-azaspiro[5.5]undec-9-yl)-3-{3-[3-{[2-(4-fluoropiperidin-1-yl)ethyl]sulfanyl}-4-(trifluoromethyl)phenyl]-5-(methylsulfonyl)-4,5,6,7-tetrahydro-1H-pyrazolo[4,3-c]pyridin-1-yl}propan-2-ol]: the IC50 worked out at 200 nM.

With `CS(=O)(=O)N1CCc2c(c(-c3ccc(C(F)(F)F)c(SCCN4CCOC(CO)C4)c3)nn2CCCN2CCCCC2)C1` (stereo not drawn) [Example 147, {4-[2-({5-[5-(Methylsulfonyl)-1-(3-piperidin-1-ylpropyl)-4,5,6,7-tetrahydro-1H-pyrazolo[4,3-c]pyridin-3-yl]-2-(trifluoromethyl)phenyl}sulfanyl)ethyl]morpholin-2-yl}methanol], the half-inhibitory concentration (IC50) is 600 nM.

For `CS(=O)(=O)N1CCc2c(c(-c3ccc(C(F)(F)F)c(SCCN4CCC(C(N)=O)CC4)c3)nn2C[C@@H](O)CN2CCOCC2)C1` [Example 226, 1-(2-{[5-{1-[(2S)-2-Hydroxy-3-morpholin-4-ylpropyl]-5-(methylsulfonyl)-4,5,6,7-tetrahydro-1H-pyrazolo[4,3-c]pyridin-3-yl}-2-(trifluoromethyl)phenyl]sulfanyl}ethyl)piperidine-4-carboxamide], the IC50 turned out to be 920 nM.

With `CN(C)c1ccc2c(n1)n(C1CCN(CC(O)Cn3nc(-c4ccc(C(F)(F)F)c(SCC(=O)N5CC[C@H](O)C5)c4)c4c3CCN(S(C)(=O)=O)C4)CC1)c(=O)n2C` (stereo partly drawn) [Example 894, 5-(Dimethylamino)-3-[1-(2-hydroxy-3-{3-[3-({2-[(3S)-3-hydroxypyrrolidin-1-yl]-2-oxoethyl}sulfanyl)-4-(trifluoromethyl)phenyl]-5-(methylsulfonyl)-4,5,6,7-tetrahydro-1H-pyrazolo[4,3-c]pyridin-1-yl}propyl)piperidin-4-yl]-1-methyl-1,3-dihydro-2H-imidazo[4,5-b]pyridin-2-one], the IC50 came out at 10 nM.

For `CS(=O)(=O)N1CCc2c(c(-c3ccc(C(F)(F)F)c(SCC(=O)N4CCCC4)c3)nn2CCCN2CCC(N3CCCC3=O)CC2)C1` [Example 92, 1-[1-(3-{5-Methanesulfonyl-3-[3-(2-oxo-2-pyrrolidin-1-yl-ethylsulfanyl)-4-trifluoromethyl-phenyl]-4,5,6,7-tetrahydro-pyrazolo[4,3-c]pyridin-1-yl}-propyl)-piperidin-4-yl]-pyrrolidin-2-one], the IC50 was found to be 60 nM.

As for `NC(=O)C(=O)N1CCc2c(c(-c3ccc(C(F)(F)F)c(SCCN4CCC(F)CC4)c3)nn2C[C@@H](O)CN2CCCCC2)C1` [Example 250, 2-{3-[3-{[2-(4-Fluoropiperidin-1-yl)ethyl]sulfanyl}-4-(trifluoromethyl)phenyl]-1-[(2S)-2-hydroxy-3-piperidin-1-ylpropyl]-1,4,6,7-tetrahydro-5H-pyrazolo[4,3-c]pyridin-5-yl}-2-oxoacetamide], the IC50 was determined as 50 nM.

In the case of `CS(=O)(=O)N1CCc2c(c(-c3ccc(C(F)(F)F)c(SCCN4CCC(F)CC4)c3)nn2CC(O)CN2CCC(C(=O)N3CCOCC3)CC2)C1` (stereo not drawn) [Example 854, 1-{3-[3-{[2-(4-Fluoropiperidin-1-yl)ethyl]sulfanyl}-4-(trifluoromethyl)phenyl]-5-(methylsulfonyl)-4,5,6,7-tetrahydro-1H-pyrazolo[4,3-c]pyridin-1-yl}-3-[4-(morpholin-4-ylcarbonyl)piperidin-1-yl]propan-2-ol], the IC50 came out at 130 nM.

For `CS(=O)(=O)N1CCc2c(c(-c3ccc(C(F)(F)F)c(SCCNC(=O)C4CCNC4)c3)nn2CC(O)CN2CCC(N3CCCC3=O)CC2)C1` (stereo not drawn) [Example 126, Pyrrolidine-3-carboxylic acid {2-[5-(1-{2-hydroxy-3-[4-(2-oxo-pyrrolidin-1-yl)-piperidin-1-yl]-propyl}-5-methanesulfonyl-4,5,6,7-tetrahydro-1H-pyrazolo[4,3-c]pyridin-3-yl)-2-trifluoromethyl-phenylsulfanyl]-ethyl}-amide], the IC50 was determined as 580 nM.

Turning to `CS(=O)(=O)N1CCc2c(c(-c3ccc(C(F)(F)F)c(SCCN4CCCC(CO)C4)c3)nn2CC(O)CN2CCCC2)C1` (stereo not drawn) [Example 388, 1-{3-[3-({2-[3-(Hydroxymethyl)piperidin-1-yl]ethyl}sulfanyl)-4-(trifluoromethyl)phenyl]-5-(methylsulfonyl)-4,5,6,7-tetrahydro-1H-pyrazolo[4,3-c]pyridin-1-yl}-3-pyrrolidin-1-ylpropan-2-ol], the IC50 was 580 nM.

Regarding `CS(=O)(=O)N1CCc2c(c(-c3ccc(C(F)(F)F)c(SCCN4CCOCC4)c3)nn2CCCN2CCCCC2)C1` [Example 326, 5-(Methylsulfonyl)-3-{3-[(2-morpholin-4-ylethyl)sulfanyl]-4-(trifluoromethyl)phenyl}-1-(3-piperidin-1-ylpropyl)-4,5,6,7-tetrahydro-1H-pyrazolo[4,3-c]pyridine], the IC50 was found to be 880 nM.

For the compound `CS(=O)(=O)N1CCc2c(c(-c3ccc(C(F)(F)F)c(SCC(=O)N4CCC[C@@H]4C(N)=O)c3)nn2CCCN2CCC(N3CCCC3=O)CC2)C1` [Example 108, (R)-1-{2-[5-(5-Methanesulfonyl-1-{3-[4-(2-oxo-pyrrolidin-1-yl)-piperidin-1-yl]-propyl}-4,5,6,7-tetrahydro-1H-pyrazolo[4,3-c]pyridin-3-yl)-2-trifluoromethyl-phenylsulfanyl]-acetyl}-pyrrolidine-2-carboxylic acid amide], the IC50 turned out to be 90 nM.

Regarding `CS(=O)(=O)N1CCc2c(c(-c3ccc(C(F)(F)F)c(SCC(=O)N4CCC(c5ccccc5)CC4)c3)nn2CCCN2CCC(N3CCCC3=O)CC2)C1` [Example 100, 1-{1-[3-(5-Methanesulfonyl-3-{3-[2-oxo-2-(4-phenyl-piperidin-1-yl)-ethylsulfanyl]-4-trifluoromethyl-phenyl}-4,5,6,7-tetrahydro-pyrazolo[4,3-c]pyridin-1-yl)-propyl]-piperidin-4-yl}-pyrrolidin-2-one], the IC50 stood at 230 nM.

Regarding `CS(=O)(=O)N1CCc2c(c(-c3ccc(C(F)(F)F)c(SCCN4CCCCC4)c3)nn2CC(O)CN2CCN(c3ccccc3Cl)CC2)C1` (stereo not drawn) [Example 788, 1-[4-(2-Chlorophenyl)piperazin-1-yl]-3-[5-(methylsulfonyl)-3-{3-[(2-piperidin-1-ylethyl)sulfanyl]-4-(trifluoromethyl)phenyl}-4,5,6,7-tetrahydro-1H-pyrazolo[4,3-c]pyridin-1-yl]propan-2-ol], the IC50 came to 20 nM.

For `NCC(=O)N1CCc2c(c(-c3ccc(C(F)(F)F)c(SCCN4CCC(F)CC4)c3)nn2CC(O)CN2CCCCC2)C1` (stereo not drawn) [Example 338, 1-{3-[3-{[2-(4-Fluoropiperidin-1-yl)ethyl]sulfanyl}-4-(trifluoromethyl)phenyl]-5-glycyl-4,5,6,7-tetrahydro-1H-pyrazolo[4,3-c]pyridin-1-yl}-3-piperidin-1-ylpropan-2-ol], the IC50 is 810 nM.
